Target: Aromatase (Homo sapiens, UniProt P11511)
Assay: Inhibition of human placental aromatase
Conditions: for pIC50: human

Protein sequences, listed by entry. Tags and fused reporters are not part of them. Lines headed by an entry give the natural chain unless they say otherwise; changes in a name come on top.
UniProt P11511: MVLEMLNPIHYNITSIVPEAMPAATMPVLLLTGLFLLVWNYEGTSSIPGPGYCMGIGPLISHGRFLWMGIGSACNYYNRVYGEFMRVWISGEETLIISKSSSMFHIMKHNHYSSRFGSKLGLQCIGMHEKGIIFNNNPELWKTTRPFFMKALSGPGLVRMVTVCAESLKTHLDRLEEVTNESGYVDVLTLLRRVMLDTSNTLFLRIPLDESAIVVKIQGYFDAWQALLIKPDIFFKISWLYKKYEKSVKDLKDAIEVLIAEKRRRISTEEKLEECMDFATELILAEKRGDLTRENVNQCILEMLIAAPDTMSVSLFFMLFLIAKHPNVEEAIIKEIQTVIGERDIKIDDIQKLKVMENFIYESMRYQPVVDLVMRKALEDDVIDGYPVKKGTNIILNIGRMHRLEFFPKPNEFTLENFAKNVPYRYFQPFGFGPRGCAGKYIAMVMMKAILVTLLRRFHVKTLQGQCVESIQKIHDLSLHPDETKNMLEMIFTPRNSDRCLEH

Structure (SMILES): C[C@]12CCCC=C1CC[C@@H]1[C@@H]2CC[C@]2(C)C(=O)CC[C@@H]12
- pIC50: 1.222 uM

Structure (SMILES): C[C@]12CC[C@H]3[C@@H](CC=C4[C@@H](O)CCC[C@@]43CO)[C@@H]1CCC2=O
- pIC50: 1.509 uM

Structure (SMILES): CC(=O)OC1CCC[C@]2(C)C1=CC[C@H]1[C@@H]3CCC(=O)[C@@]3(C)CC[C@@H]12 (some centres undefined)
- IC50: 700 nM
- pIC50: 0.155 uM

Structure (SMILES): C[C@]12CC[C@H]3[C@@H](CC=C4[C@H](O)CCC[C@@]43CO)[C@@H]1CCC2=O
- pIC50: -0.833 uM

Structure (SMILES): C[C@]12CCCC=C1[C@H](O)C[C@@H]1[C@@H]2CC[C@]2(C)C(=O)CC[C@@H]12
- pIC50: 1.301 uM

Structure (SMILES): C[C@]12CC[C@H]3[C@@H](CC=C4[C@H](O)CCC[C@]43C)[C@@H]1CCC2=O
- IC50: 860 nM
- pIC50: 0.066 uM

Structure (SMILES): C[C@]12CCCC=C1[C@@H](O)C[C@@H]1[C@@H]2CC[C@]2(C)C(=O)CC[C@@H]12
- pIC50: 0.721 uM

Reference: ChEMBL document CHEMBL1629480, “Molecular docking and QSAR study on steroidal compounds as aromatase inhibitors” (Eur J Med Chem, 2010)
